The source of these data is PubChem BioAssay AID602363 (Broad Institute, 2012).

SMILES strings stand for the structures. Among all 350,000 compounds or so, about 450 (0.13%) were called active. This is one part of a sample in which actives are shown more often than they occur.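 Rule for the calls: active = replicate mean at a twofold rise or more (about +100% in these data); inactive = the rest.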

A short description of the test: modulators of yeast start codon fidelity, primary screen, whole organism, S. cerevisiae, single point, plate reader (AID 602363).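 Note: firefly luciferase made from a UUG start codon reports start codon fidelity.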 The conditions noted are these: S. cerevisiae UUG-firefly luciferase reporter, luminescence/redox ratio; at 18.7 µM; active compounds read high.
As to `C[C@@H]1CN([C@@H](C)CO)C(=O)c2cc(NS(=O)(=O)c3cccs3)ccc2O[C@@H]1CN(C)S(=O)(=O)c1ccc(F)cc1`, the activity score was 2.8% (inactive).
As to `C[C@@H]1CCCCO[C@@H](CN(C)S(C)(=O)=O)[C@H](C)CN([C@@H](C)CO)C(=O)c2cc(NC(=O)Nc3ccc4c(c3)OCO4)ccc2O1`, the activity score was 12.2% (inactive).
For `C[C@H]1CN([C@@H](C)CO)C(=O)c2cc(-c3ccccc3F)cnc2O[C@@H]1CN(C)C(=O)C1CCCCC1`, the activity score is 12.9% (inactive).
For `CO[C@@H]1CN(C)C(=O)c2cc(NC(=O)NC3CCCCC3)ccc2OC[C@H](C)N(CC2CC2)C[C@H]1C`, the activity score was -4.52% (inactive).
With `CC(=O)N(C)C[C@H]1Oc2cc(C#CC3CC3)ccc2S(=O)(=O)N([C@H](C)CO)C[C@@H]1C` the figure was 22% (inactive); with `COc1ccccc1C#Cc1ccc([C@H]2[C@H](CO)N3CCCCN(C(=O)C4CCC4)C[C@@H]23)cc1`, 29.8% (inactive); with `Cc1ccccc1-c1cnc2c(c1)C(=O)N([C@@H](C)CO)C[C@@H](C)[C@@H](CN(C)CC1CCOCC1)O2`, -10.7% (inactive).
Regarding `CC(C)C#Cc1ccc2c(c1)O[C@@H](CN(C)C(=O)CN(C)C)[C@@H](C)CN([C@H](C)CO)S2(=O)=O`, the activity score is 61.3% (active).
As for `C[C@H]1CN([C@@H](C)CO)S(=O)(=O)c2ccc(C#CCN(C)C)cc2O[C@H]1CN(C)C(=O)CN(C)C`, the figure is 28.3% (inactive).
With `C[C@@H]1CN([C@@H](C)CO)S(=O)(=O)c2ccc(C#Cc3ccc(F)cc3)cc2O[C@H]1CN(C)C(=O)NC1CCCC1` the figure was 273% (active); with `C/C=C/c1ccc2c(c1)O[C@@H](CN(C)C(=O)NC1CCCC1)[C@@H](C)CN([C@H](C)CO)S2(=O)=O`, 12.5% (inactive).
As to `C[C@@H]1CN([C@@H](C)CO)S(=O)(=O)c2ccc(C#C[C@@H](C)O)cc2O[C@@H]1CN(C)C(=O)CN(C)C`, the activity score is -1.41% (inactive).
Consider `C[C@@H]1CN([C@@H](C)CO)S(=O)(=O)c2ccc(C#Cc3ccc(F)cc3)cc2O[C@@H]1CN(C)CC1CC1`, for which the activity score is 11.3% (inactive).
In the case of `Cc1ccc(S(=O)(=O)N(C)C[C@@H]2Oc3ccc(NC(=O)NC4CCCCC4)cc3C(=O)N([C@@H](C)CO)C[C@H]2C)cc1`, the activity score was -6.25% (inactive).
As to `C[C@@H]1CN([C@@H](C)CO)S(=O)(=O)c2ccc(C#Cc3ccccc3)cc2O[C@@H]1CN(C)C(=O)C1CC1`, the activity score was -28.6% (inactive).
Turning to `COCC#Cc1cnc2c(c1)C(=O)N([C@@H](C)CO)C[C@@H](C)[C@@H](CN(C)C(=O)c1cccnc1)O2`, the activity score was -8.09% (inactive).
In the case of `CN1c2ccc(Br)cc2[C@@H]2[C@@H](CCN2C(=O)C2CCCCC2)[C@H]1CO`, the activity score is 25.4% (inactive).
With `C[C@H](CO)N1C[C@H](C)[C@H](CN(C)C(=O)Nc2cccc3ccccc23)Oc2ncc(C#Cc3ccccc3)cc2C1=O` the figure was -10% (inactive).
With `Cc1ccccc1S(=O)(=O)N1[C@H](C#N)[C@H](c2ccccc2)[C@H]1CO` the figure was -7.59% (inactive); with `C[C@H](CO)N1C[C@H](C)[C@H](CN(C)S(=O)(=O)c2cccs2)Oc2ccc(NS(=O)(=O)c3ccc(Cl)cc3)cc2CC1=O`, 3.99% (inactive); with `COc1ccc(CN(C)C[C@H]2OCCCC[C@H](C)Oc3ccc(NC(=O)Nc4ccc5c(c4)OCO5)cc3C(=O)N([C@H](C)CO)C[C@@H]2C)cc1`, 0.433% (inactive).
As for `C[C@H](CO)N1C[C@H](C)[C@H](CN(C)S(=O)(=O)c2cccs2)Oc2c(NC(=O)Nc3ccc4c(c3)OCO4)cccc2C1=O`, the activity score was 6.62% (inactive).
As for `O=C(C[C@H]1C[C@H]2c3cc(NC(=O)NC4CCCC4)ccc3O[C@H]2[C@H](CO)O1)NCCc1ccccc1`, the figure is -18.1% (inactive).
With `C[C@@H]1CN([C@H](C)CO)C(=O)c2cc(NS(=O)(=O)c3ccccc3)ccc2O[C@@H](C)CCCCO[C@H]1CN(C)C(=O)C1CCCCC1`, the activity score was 18.3% (inactive).
Consider `CCC(=O)N1[C@@H](CO)[C@H](c2ccc(-c3cccc(F)c3)cc2)[C@@H]1CNC(C)=O`, for which the activity score was 2% (inactive).
Take `C[C@H](CO)N1C[C@H](C)[C@@H](CN(C)S(=O)(=O)c2cccs2)Oc2ccc(NC(=O)Nc3cccc4ccccc34)cc2CC1=O`: the activity score was -2.1% (inactive).
For `C[C@@H]1CN([C@H](C)CO)C(=O)c2cccc(NC(=O)Nc3ccccc3)c2O[C@H]1CN(C)S(C)(=O)=O`, the activity score was 1.91% (inactive).
For the compound `C[C@@H]1CN([C@H](C)CO)C(=O)c2cc(NS(=O)(=O)c3ccc(F)cc3)ccc2O[C@H]1CN(C)C(=O)Nc1cccc2ccccc12`, the activity score is -5.16% (inactive).
For the compound `CCC(=O)N(C)C[C@H]1Oc2cc(C#CC3CCCC3)ccc2S(=O)(=O)N([C@H](C)CO)C[C@@H]1C`, the activity score was -3% (inactive).
Take `COc1ccccc1-c1cn(CC[C@H]2CC[C@@H](NC(=O)CCN3CCCCC3)[C@@H](CO)O2)nn1`: the activity score is 7.11% (inactive).
With `O=C(Cc1ccccn1)NCC[C@H]1CC[C@H](NS(=O)(=O)c2ccccc2)[C@@H](CO)O1`, the activity score was 7.13% (inactive).
Consider `COc1cccc(S(=O)(=O)Nc2ccc3c(c2)C(=O)N(C)C[C@@H](OC)[C@H](C)CN(C(=O)Cc2cccnc2)[C@H](C)CO3)c1`, for which the activity score was -4.59% (inactive).
With `O=C1N=C(N2CCc3ccccc3C2)S/C1=C\c1ccc(O)cc1` the figure was 376% (active); with `CCOc1cc(/C=C2\SC(N3CCCCC3)=NC2=O)ccc1O`, 6.38% (inactive); with `O=C1N=C(N2CCOCC2)S/C1=C\C=C/c1ccccc1`, -1.22% (inactive).
Turning to `Cc1c(Nc2cc(N3CCCC(C)C3)c3nonc3c2[N+](=O)[O-])c(=O)n(-c2ccccc2)n1C` (stereo unspecified), the activity score is 273% (active).
Turning to `Cc1cc(C)c(S(=O)(=O)Nc2c(C)n(C)n(-c3ccccc3)c2=O)cc1[N+](=O)[O-]`, the activity score was 3.79% (inactive).
As for `Cc1c(NC(=O)c2c([N+](=O)[O-])cnn2C)c(=O)n(-c2ccccc2)n1C`, the activity score was -20.3% (inactive).
With `CCc1ccc(N(C(=O)c2csnn2)C(C(=O)NC2CCCCC2)c2ccncc2)cc1` (stereo unspecified), the activity score is -16.9% (inactive).
In the case of `O=C(NC1CCCCC1)C1CCCN(S(=O)(=O)c2cccs2)C1` (stereo unspecified), the activity score is -10.8% (inactive).
Turning to `CC1CCCN(S(=O)(=O)c2ccc(N(C(=O)c3cnccn3)C(C(=O)NC3CCCCC3)c3cccs3)cc2)C1` (stereo unspecified), the activity score was 130% (active).
